From patent US6784201B2, “Benzothiepines having activity as inhibitors of ileal bile acid transport and taurocholate uptake” (G.D. Searle & Company, priority 1994, dated 2004) come the findings set out here.

Amino acid sequences for entries named in this document (tags omitted).
UniProt Q12908, whole entry: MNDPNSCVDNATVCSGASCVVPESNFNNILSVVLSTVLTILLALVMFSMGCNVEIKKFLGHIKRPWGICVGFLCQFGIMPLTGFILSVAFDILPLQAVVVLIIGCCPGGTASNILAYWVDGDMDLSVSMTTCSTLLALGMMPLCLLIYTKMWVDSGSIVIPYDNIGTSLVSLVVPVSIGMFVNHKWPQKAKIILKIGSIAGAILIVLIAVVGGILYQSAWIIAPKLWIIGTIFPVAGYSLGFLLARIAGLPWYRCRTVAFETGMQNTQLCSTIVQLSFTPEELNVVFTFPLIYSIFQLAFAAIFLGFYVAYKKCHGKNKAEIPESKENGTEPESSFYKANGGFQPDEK

This assay has as its target human IBAT (Homo sapiens, UniProt Q12908). The assay is described as follows: In vitro assay of IBAT-mediated uptake of [14C]-taurocholate (TC) in H14 cells. The note with it: read-out: Human TC IC50. It counts as cell-based.

Read-outs that look alike come from different tables or passages of the source.

As usually defined, the IC50 is the midpoint of a concentration-inhibition curve. On to `CCCCC1(CCCC)CS(=O)(=O)c2ccc(Br)cc2[C@@H](c2ccc3c(c2)OCO3)[C@H]1O` (relative stereo), for which the IC50 turned out to be 0.079 µM.

Regarding `CCCCC1(CCCC)CS(=O)(=O)c2ccc(N(C)C)cc2[C@@H](c2ccc(OCCCCCCBr)c(F)c2)[C@H]1O` (relative stereo), the IC50 was determined as 0.023 µM.

As for `CCCCC1(CCCC)CS(=O)(=O)c2ccc(N(C)C)cc2[C@@H](c2ccc(OCCCCCC[N+](CC)(CC)CC)c(F)c2)[C@H]1O` (relative stereo), the IC50 (tested form: trifluoroacetate) worked out at 0.0015 µM.

For `CCCCC1(CCCC)CS(=O)(=O)c2ccc(N(C)C)cc2[C@@H](c2ccc(OCCOCCOCC[N+](c3ccccc3)(c3ccccc3)c3ccccc3)cc2)[C@H]1O` (relative stereo), the IC50 (tested form: iodide) amounted to 0.003 µM.

Take `CCCCC1(CCCC)CS(=O)(=O)c2ccc(N(C)C)cc2[C@@H](c2cccc(OCCOCCOCC[N+](CC)(CC)CCN(CC)CC)c2)[C@H]1O` (relative stereo): for the setting “tested form: iodide”, the IC50 was found to be 0.003 µM.

Consider `CCCC[C@@]1(CC)CS(=O)(=O)c2ccc(C(=O)OC)cc2[C@@H](c2ccc3c(c2)OCO3)[C@H]1O` (relative stereo), for which the IC50 came to 0.29 µM.

As for `CCCCC1(CCCC)CS(=O)(=O)c2ccc(N(C)C)cc2[C@@H](c2ccc3c(c2)OCO3)[C@H]1O` (relative stereo) [1105], the IC50 was determined as 0.007 µM.

For `CCCC[C@]1(CC)CS(=O)(=O)c2ccc(Br)cc2[C@@H](c2ccc3c(c2)OCO3)[C@H]1O` (relative stereo) [1216], the IC50 is 0.39 µM.
